From US6080772A, “Thiazole compounds and methods of modulating signal transduction” (Sugen, Inc., priority 1997, dated 2000)

How the values were obtained:
[1] = test system: primary adipocytes; assay: Primary adipocyte glucose uptake assay (14C glucose); conditions: test compound 50 mM without insulin, compared to samples containing only insulin (final concentration=100 μm)
[2] = test system: insulin receptor (IR); assay: Phosphotyrosine enzyme linked immunosorbent assay: pTyr on insulin receptor in NIH3T3 cells over-expressing human IR (H25 cells)

Row | Molecule | response in the primary adipocyte glucose uptake assay compared with the insulin control [1] | one point determination, effect on PTYR ([2]; Table II, at 100 μm) | EC50 ([2]; read-out: ACTIVITY EC50, Table III, concentration that produces a 50% increase in the content of phosphotyrosine over the control)
1 | 5-Chloro-1-isopropyl-2-[(5-nitrothiazol-2-l)mercapto]benzimidazole | did not give a response greater than or equal to the insulin control | no effect | 
2 | O=[N+]([O-])c1ccc(Cc2nnc(Sc3ncc([N+](=O)[O-])s3)s2)c([N+](=O)[O-])c1 |  |  | 94 µM
